Assay results reported in PMC3978166, “A new unconventional HLA-A2-restricted epitope from HBV core protein elicits antiviral cytotoxic T lymphocytes” (Protein & Cell, 2014).

Target: HLA-A*0201 molecules on T2 cells (human (endogenous in T2))
Experiment: flow cytometry on cells

HBc18–27 peptide was tested, and the FI (fluorescent index) was 2.47.
